Test results: patent US6121055A, “Methods and devices for conducting specific binding assays” (priority 1995, dated 2000)

System: TSH antibody (commercial RIA kit)
Experiment: Competitive RIA for thyroid stimulating hormone (TSH), standard and adapted
Assay type: binding
Description: A commercial 125-iodine RIA kit for determining TSH was obtained from American Bioclinical (Portland, Oreg.) and adapted to the separation and detection methods of the present invention. All assay reactants were used according to the manufacturer's instructions except that reactant volumes were decreased four-fold, and S. aureus (25 L of a 10% w/v suspension per test) was substituted for the "second antibody" precipitating solution. The adapted test was performed using 0.4 mL microcentrifuge tubes containing 0.25 mL butyl phthalate cushions.

Substance: TSH: thyroid stimulating hormone standards of a commercial RIA kit
- % BOUND (adapted test, 33 OU/mL in RIA, 2 hours 37 C): 7.2%
- % BOUND (standard test, 25 OU/mL in RIA, 4 hours room temperature): 15.2%
- % BOUND (standard test, 33 OU/mL in RIA, 4 hours room temperature): 12.0%
- % BOUND (standard test, 50 OU/mL in RIA, 4 hours room temperature): 7.9%
